Values of other authors in patent US20170246129A1, “COMPOSITION USING GUANIDINE COMPOUND FOR SUPPRESSING TRANSFORMING GROWTH FACTOR (TGF)-beta” (Peking University Third Hospital, priority 2016, published 2017).

Conditions: in vivo; cited from earlier work

CN(C)C(=N)N=C(N)N [metformin, metformin hydrochloride]
excretion: excreted unchanged in the urine | metabolism: not metabolized

Counter-ions that a name gives are not always drawn.
